Patent US20260022143A1, “Cyclic Peptide Inhibitors of IL-23” (JANSSEN PHARMACEUTICA NV, priority 2022, published 2026)

Biological target: T1, IL-23R (Homo sapiens, UniProt Q5VWK5)
T1 construct: host or cells: HEK293
T1 sequence (Q5VWK5 24-629): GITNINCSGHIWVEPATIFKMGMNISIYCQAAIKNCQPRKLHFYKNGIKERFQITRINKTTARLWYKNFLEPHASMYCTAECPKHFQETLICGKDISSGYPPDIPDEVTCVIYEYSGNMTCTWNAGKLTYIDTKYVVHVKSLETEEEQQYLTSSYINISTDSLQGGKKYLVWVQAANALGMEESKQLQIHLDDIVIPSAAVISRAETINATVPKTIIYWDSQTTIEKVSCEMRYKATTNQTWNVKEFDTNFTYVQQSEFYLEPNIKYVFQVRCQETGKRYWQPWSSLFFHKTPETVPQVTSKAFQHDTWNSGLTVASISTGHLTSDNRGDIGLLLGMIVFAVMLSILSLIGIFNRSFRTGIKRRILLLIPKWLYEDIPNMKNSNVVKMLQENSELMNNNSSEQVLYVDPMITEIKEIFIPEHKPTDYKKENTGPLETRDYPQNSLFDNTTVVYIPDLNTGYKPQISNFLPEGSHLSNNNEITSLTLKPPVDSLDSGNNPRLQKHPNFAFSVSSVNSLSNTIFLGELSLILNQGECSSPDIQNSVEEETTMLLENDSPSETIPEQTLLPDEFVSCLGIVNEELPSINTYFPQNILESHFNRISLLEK
Assay: IL23R Reporter Assay
Type: cell-based
Details: HEK293 cells containing IL-23R, IL-12RP1 and STAT-inducible firefly luciferase reporter; 10 ng/mL IL-23 (EC90); 5 h at 37° C.; read-out: IL23R Reporter Assay

| Compound | IC50 [nM] |
| --- | --- |
| CC(=O)NCCCC[C@@H]1NC(=O)[C@H](Cc2c[nH]c3c(C)cccc23)NC(=O)[C@H]([C@@H](C)O)NC(=O)[C@H](CC(N)=O)NC(=O)[C@@H](NC(C)=O)C(C)(C)SSC(C)(C)[C@@H](C(=O)N[C@@H](Cc2ccc(-n3cc(CCC[N+]4(C)CCOCC4)nn3)cc2)C(=O)N[C@@H](Cc2ccc3ccccc3c2)C(=O)NC2(C(=O)N[C@@H](CCC(=O)O)C(=O)N[C@@H](CC(N)=O)C(=O)N[C@@H](Cc3cccnc3)C(=O)N(C)CC(N)=O)CCOCC2)NC1=O [compound 453] | 2.3 |
| CC(=O)NCCCC[C@@H]1NC(=O)[C@H](Cc2c[nH]c3c(C)cccc23)NC(=O)[C@H]([C@@H](C)O)NC(=O)[C@H](CC(N)=O)NC(=O)[C@@H](NC(C)=O)C(C)(C)SSC(C)(C)[C@@H](C(=O)N[C@@H](Cc2ccc(OCCCCCCCC[N+](C)(C)C)cc2)C(=O)N[C@@H](Cc2ccc3ccccc3c2)C(=O)NC2(C(=O)N[C@@H](CCC(=O)O)C(=O)N[C@@H](CC(N)=O)C(=O)N[C@@H](Cc3cccnc3)C(=O)N(C)CC(N)=O)CCOCC2)NC1=O [compound 457] | 1.3 |
| CC(=O)NCCCC[C@@H]1NC(=O)[C@H](Cc2c[nH]c3c(C)cccc23)NC(=O)[C@H]([C@@H](C)O)NC(=O)[C@H](CC(N)=O)NC(=O)[C@@H](NC(=O)[C@@H](CCCNC(=N)N)NC(C)=O)C(C)(C)SSC(C)(C)[C@@H](C(=O)N[C@@H](Cc2ccc(OCCCCC[N+](C)(C)C)cc2)C(=O)N[C@@H](Cc2ccc3ccccc3c2)C(=O)NC2(C(=O)N[C@@H](CCC(=O)O)C(=O)N[C@@H](CC(N)=O)C(=O)N[C@@H](Cc3cccnc3)C(=O)N(C)CC(N)=O)CCOCC2)NC1=O [compound 462, MeCO-r-Pen(3)-N-T-7MeW-K(Ac)-Pen(3)-TMAPF-2Nal-THP-E-N-3Pya-Sar-CONH2] | 1.3 |
| CC(=O)N(C)CCCC[C@H](NC(=O)[C@H](Cc1c[nH]c2ccccc12)NC(=O)[C@H](Cc1ccc2ccccc2c1)NC(=O)[C@H](Cc1ccc(OCCOCCOCC[N+](C)(C)C)cc1)NC(=O)[C@H]1NC(=O)[C@H](Cc2c[nH]c3ccccc23)NC(=O)[C@H](Cc2c[nH]c3c(C)cccc23)NC(=O)[C@H]([C@@H](C)O)NC(=O)[C@H](Cc2c[nH]c3ccccc23)NC(=O)[C@@H](NC(=O)CCOCCOCC[N+](C)(C)C)C(C)(C)SSC1(C)C)C(=O)N[C@@H](CC(N)=O)C(=O)N[C@@H](Cc1cccnc1)C(=O)N(C)CC(=O)N(C)C [compound 465, cPEG3aCO-Pen(3)-W-T-7MeW-W-Pen(3)-APEG3f-2Nal-W-K(NMeAc)-N-3Pya-Sar-CON(Me)2] | 17 |
| CC(=O)NCCCC[C@@H]1NC(=O)[C@H](Cc2c[nH]c3c(-c4cccc(NC(C)=O)c4)cccc23)NC(=O)[C@H]([C@@H](C)O)NC(=O)[C@H](CC(N)=O)NC(=O)[C@@H](NC(=O)[C@@H](CCCC[N+](C)(C)C)NC(C)=O)C(C)(C)SSC(C)(C)[C@@H](C(=O)N[C@@H](Cc2ccc(OCCNC(=N)N)cc2)C(=O)N[C@@H](Cc2ccc3ccccc3c2)C(=O)NC2(C(=O)N[C@@H](CCC(=O)O)C(=O)N[C@@H](CC(N)=O)C(=O)N[C@@H](Cc3cncc(C)c3)C(=O)N(C)CC(N)=O)CCOCC2)NC1=O [compound 480, MeCO-k(Me)3-Pen(3)-N-T-7(3NAcPh)W-K(Ac)-Pen(3)-AEF(G)-2Nal-THP-E-N-5MePyridinAla-Sar-CONH2] | 3.6 |
| CC(=O)N(C)CCCC[C@@H]1NC(=O)[C@H](Cc2c[nH]c3c(C)cccc23)NC(=O)[C@H](CC(C)C)NC(=O)[C@H](CC(=O)N(C)C)NC(=O)[C@@H](NC(=O)CCOCCOCC[N+](C)(C)C)C(C)(C)SSC(C)(C)[C@@H](C(=O)N[C@@H](Cc2ccc(OCCCCC[N+](C)(C)C)cc2)C(=O)N[C@@H](Cc2ccc3ccccc3c2)C(=O)NC2(C(=O)N[C@@H](CCCCN(C)C(C)=O)C(=O)N[C@@H](CC(N)=O)C(=O)N[C@@H](Cc3cccnc3)C(=O)N(C)CC(=O)N(C)C)CCOCC2)NC1=O [compound 493, cPEG3aCO-Pen(3)-N(N(Me)2)-L-7MeW-K(NMeAc)-Pen(3)-TMAPF-2Nal-THP-K(NMeAc)-N-3Pya-Sar-CON(Me)2] | 17 |

Further compounds by falling IC50, results first:

| IC50 [nM] | Compound |
| --- | --- |
| 3.9 | CC(=O)NCCCC[C@@H]1NC(=O)[C@H](Cc2c[nH]c3c(-c4cccc(NC(C)=O)c4)cccc23)NC(=O)[C@H]([C@@H](C)O)NC(=O)[C@H](CC(N)=O)NC(=O)[C@@H](NC(C)=O)C(C)(C)SSC(C)(C)[C@@H](C(=O)N[C@@H](Cc2ccc(OCCNC(=N)N)cc2)C(=O)N[C@@H](Cc2ccc3ccccc3c2)C(=O)NC2(C(=O)N[C@@H](CCCCN(C)C(C)=O)C(=O)N[C@@H](CC(N)=O)C(=O)N[C@@H](Cc3cncc(C)c3)C(=O)N(C)CC(N)=O)CCOCC2)NC1=O [compound 482, MeCO-Pen(3)-N-T-7(3NAcPh)W-K(Ac)-Pen(3)-AEF(G)-2Nal-THP-K(NMeAc)-N-5MePyridinAla-Sar-CONH2] |
| 3.6 | CC(=O)N(C)CCCC[C@@H]1NC(=O)[C@H](Cc2c[nH]c3c(C)cccc23)NC(=O)[C@H]([C@@H](C)O)NC(=O)[C@H](CC(=O)N(C)C)NC(=O)[C@@H](NC(=O)CCOCCOCC[N+](C)(C)C)C(C)(C)SSC[C@@H](C(=O)N[C@@H](Cc2ccc(OCCCCC[N+](C)(C)C)cc2)C(=O)N[C@@H](Cc2ccc3ccccc3c2)C(=O)NC2(C(=O)N[C@@H](CCCCN(C)C(C)=O)C(=O)N[C@@H](CC(N)=O)C(=O)N[C@@H](Cc3cccnc3)C(=O)N(C)CC(=O)N(C)C)CCOCC2)NC1=O [compound 485, cPEG3aCO-Pen(3)-N(N(Me)2)-T-7MeW-K(NMeAc)-C(3)-TMAPF-2Nal-THP-K(NMeAc)-N-3Pya-Sar-CON(Me)2] |
| 3.6 | CC(=O)N(C)CCCC[C@@H]1NC(=O)[C@H](Cc2c[nH]c3c(C)cccc23)NC(=O)[C@H]([C@@H](C)O)NC(=O)[C@H](CC(C)C)NC(=O)[C@@H](NC(=O)CCOCCOCC[N+](C)(C)C)C(C)(C)SSC(C)(C)[C@@H](C(=O)N[C@@H](Cc2ccc(OCCCCC[N+](C)(C)C)cc2)C(=O)N[C@@H](Cc2ccc3ccccc3c2)C(=O)NC2(C(=O)N[C@@H](CCCCN(C)C(C)=O)C(=O)N[C@@H](CC(N)=O)C(=O)N[C@@H](Cc3cccnc3)C(=O)N(C)CC(=O)N(C)C)CCOCC2)NC1=O [compound 495, cPEG3aCO-Pen(3)-1-T-7MeW-K(NMeAc)-Pen(3)-TMAPF-2Nal-THP-K(NMeAc)-N-3Pya-Sar-CON(Me)2] |
| 3.3 | CC(=O)NCCCC[C@@H]1NC(=O)[C@H](Cc2c[nH]c3c(C)cccc23)NC(=O)[C@H]([C@@H](C)O)NC(=O)[C@H](CC(N)=O)NC(=O)[C@@H](NC(=O)COCCOCCNC(=O)COCCOCCNC(=O)COc2ccc(-c3ccc(F)cc3F)cc2C(=O)O)C(C)(C)SSC(C)(C)[C@@H](C(=O)N[C@@H](Cc2ccc(OCCCCC[N+](C)(C)C)cc2)C(=O)N[C@@H](Cc2ccc3ccccc3c2)C(=O)NC2(C(=O)N[C@@H](CCCCN(C)C(C)=O)C(=O)N[C@@H](CC(N)=O)C(=O)N[C@@H](Cc3cccnc3)C(=O)N(C)CC(N)=O)CCOCC2)NC1=O [compound 490, DFNPEG2PEG2CO-Pen(3)-N-T-7MeW-K(Ac)-Pen(3)-TMAPF-2Nal-THP-K(Ac)-N-3Pya-Sar-CONH2] |
| 2.3 | CC(=O)NCCCC[C@@H]1NC(=O)[C@H](Cc2c[nH]c3c(C)cccc23)NC(=O)[C@H]([C@@H](C)O)NC(=O)[C@H](CC(N)=O)NC(=O)[C@H](NC(C)=O)CSSC[C@@](C)(C(=O)N[C@@H](Cc2ccc(OCCCCC[N+](C)(C)C)cc2)C(=O)N[C@@H](Cc2ccc3ccccc3c2)C(=O)NC2(C(=O)N[C@@H](CCCCNC(C)=O)C(=O)N[C@@H](CC(N)=O)C(=O)N[C@@H](Cc3cccnc3)C(=O)N(C)CC(N)=O)CCOCC2)NC1=O [compound 478, MeCO-C(3)-N-T-7MeW-K(Ac)-aMeC(3)-TMAPF-2Nal-THP-K(Ac)-N-3Pya-Sar-CONH2] |
| 2.2 | CC(=O)NCCCC[C@@H]1NC(=O)[C@H](Cc2c[nH]c3c(-c4cccc(NC(C)=O)c4)cccc23)NC(=O)[C@H]([C@@H](C)O)NC(=O)[C@H](CC(N)=O)NC(=O)[C@@H](NC(C)=O)C(C)(C)SSC(C)(C)[C@@H](C(=O)N[C@@H](Cc2ccc(OCCCCC[N+](C)(C)C)cc2)C(=O)N[C@@H](Cc2ccc3ccccc3c2)C(=O)NC2(C(=O)N[C@@H](CCCCNC(C)=O)C(=O)N[C@@H](CC(N)=O)C(=O)N[C@@H](Cc3cccnc3)C(=O)N(C)CC(N)=O)CCOCC2)NC1=O [compound 452, MeCO-Pen(3)-N-T-7(3NAcPh)W-K(Ac)-Pen(3)-TMAPF-2Nal-THP-K(Ac)-N-3Pya-Sar-CONH2] |
| 1.7 | CC(=O)NCCCC[C@@H]1NC(=O)[C@H](Cc2c[nH]c3c(C)cccc23)NC(=O)[C@H]([C@@H](C)O)NC(=O)[C@H](CC(N)=O)NC(=O)[C@@H](NC(=O)[C@@H](CCCC[N+](C)(C)C)NC(C)=O)C(C)(C)SSC(C)(C)[C@@H](C(=O)N[C@@H](Cc2ccc(OCCCCC[N+](C)(C)C)cc2)C(=O)N[C@@H](Cc2ccc3ccccc3c2)C(=O)NC2(C(=O)N[C@@H](CCCCNC(C)=O)C(=O)N[C@@H](CC(N)=O)C(=O)N[C@@H](Cc3cccnc3)C(=O)N(C)CC(N)=O)CCOCC2)NC1=O [compound 450, MeCO-k(Me)3-Pen(3)-N-T-7MeW-K(Ac)-Pen(3)-TMAPF-2Nal-THP-K(Ac)-N-3Pya-Sar-CONH2] |
